Experimental data taken from US9127008B2, “Morphine sulfate methanolic solvate, processes for making same and related compositions and methods for treating pain” (Johnson Matthey Public Limited Company, priority 2013, dated 2015).

Assays:
[1] = 2 months under air at room temperature
[2] = first sample: about 1 month room temperature, then about 1 month at 60° C. sealed under air
[3] = second sample: about 1 month room temperature in air, then about 1 month at 60° C. sealed under nitrogen

## morphine sulfate methanol solvate
[1]
  methanol content after storage: 8.75 % by weight
  water content after storage: 2.85 % by weight
[1]; morphine base had 5 ppm ABUK at start
  ABUK level after storage: 11 ppm
[2]
  ABUK level after storage: 59 ppm
  methanol content after storage: 7.72 % by weight
  water content after storage: 5.09 % by weight
[3]
  ABUK level after storage: 21 ppm
  methanol content after storage: 7.21 % by weight
  water content after storage: 5.18 % by weight

Like-named read-outs stand apart in the source and are kept apart here.
